The text below walks through data of EP2246331A1, “NR2B-selective NMDA-receptor antagonists” (Westfälische Wilhelms-Universität Münster, priority 2009, dated 2010).

The target in this experiment is T1, σ2 receptor (Rattus norvegicus, UniProt Q5U3Y7).
T1 construct: tissue Harlan Winkelmann; host or cells: rat liver membranes
T1 sequence (Q5U3Y7 1-176): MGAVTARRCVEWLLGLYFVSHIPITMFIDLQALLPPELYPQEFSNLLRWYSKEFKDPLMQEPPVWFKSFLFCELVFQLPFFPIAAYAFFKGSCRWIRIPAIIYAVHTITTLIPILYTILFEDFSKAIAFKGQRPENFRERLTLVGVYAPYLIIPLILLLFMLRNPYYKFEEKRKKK
Description: Receptor binding assay with [3H]-ditolylguanidine on rat liver membranes. The note with it: 3 nM [3H]-ditolylguanidine with 2 µM (+)-pentazocine. On the procedure: The pig brains were a donation of the local slaughterhouse (Coesfeld, Germany). Homogenizer: Elvehjem Potter (B. Braun Biotech International, Melsungen, Germany). Centrifuge: High-speed cooling centrifuge model Sorvall RC-5C plus (Thermo Fisher Scientific, Langenselbold, Germany). Filter: Printed Filtermat Typ A and B (Perkin Elmer LAS, Rodgau-Jügesheim, Germany), presoaked in 0.5% aqueous polyethylenimine for 2 h at room temperature before use. […] Before filling to the final volume of 1000 mL, the pH of the solution was adjusted to pH=7.5 by dropwise addition of 1M HCl. The filtration was carried out with a MicroBeta FilterMate-96 Harvester (Perkin Elmer). The scintillation analysis was performed using Meltilex (Typ A or B) solid scintillator (Perkin Elmer). […] After solidifying of the scintillator at room temperature, the scintillation was measured using a MicroBeta Trilux scintillation analyzer (Perkin Elmer). […]
Two rat livers (Harlan Winkelmann, Borchen, Germany) were cut into smaller pieces and homogenized with the potter (500-800 rpm, 10 up-and-down strokes) in 6 volumes of cold 0.32 M sucrose. […] The final pellet was resuspended in 5 to 6 volumes of buffer, the protein concentration was determined according to the method of Bradford using bovine serum albumin as standard, and subsequently the preparation was frozen (-80 °C) in 1.5 mL portions containing about 2 mg protein/mL. […]

Structures are written as SMILES.

Turning to `Oc1ccc2c(c1)CCN(CCCCc1ccccc1)CC2O` (stereo not shown) [formula (4)], the “inhibition of the σ2 receptor only at concentrations above” value is “above 1 µM”.
